# Molecular target: Epidermal growth factor receptor [L858R,T790M,C797S] (Homo sapiens, UniProt P00533, C797S/L858R/T790M)
# Protein sequences, listed by entry. Tags and fused reporters are not part of them. Residues count along the entry.
# UniProt P00533, 25-1210 T790M/C797S/L858R limits assumed: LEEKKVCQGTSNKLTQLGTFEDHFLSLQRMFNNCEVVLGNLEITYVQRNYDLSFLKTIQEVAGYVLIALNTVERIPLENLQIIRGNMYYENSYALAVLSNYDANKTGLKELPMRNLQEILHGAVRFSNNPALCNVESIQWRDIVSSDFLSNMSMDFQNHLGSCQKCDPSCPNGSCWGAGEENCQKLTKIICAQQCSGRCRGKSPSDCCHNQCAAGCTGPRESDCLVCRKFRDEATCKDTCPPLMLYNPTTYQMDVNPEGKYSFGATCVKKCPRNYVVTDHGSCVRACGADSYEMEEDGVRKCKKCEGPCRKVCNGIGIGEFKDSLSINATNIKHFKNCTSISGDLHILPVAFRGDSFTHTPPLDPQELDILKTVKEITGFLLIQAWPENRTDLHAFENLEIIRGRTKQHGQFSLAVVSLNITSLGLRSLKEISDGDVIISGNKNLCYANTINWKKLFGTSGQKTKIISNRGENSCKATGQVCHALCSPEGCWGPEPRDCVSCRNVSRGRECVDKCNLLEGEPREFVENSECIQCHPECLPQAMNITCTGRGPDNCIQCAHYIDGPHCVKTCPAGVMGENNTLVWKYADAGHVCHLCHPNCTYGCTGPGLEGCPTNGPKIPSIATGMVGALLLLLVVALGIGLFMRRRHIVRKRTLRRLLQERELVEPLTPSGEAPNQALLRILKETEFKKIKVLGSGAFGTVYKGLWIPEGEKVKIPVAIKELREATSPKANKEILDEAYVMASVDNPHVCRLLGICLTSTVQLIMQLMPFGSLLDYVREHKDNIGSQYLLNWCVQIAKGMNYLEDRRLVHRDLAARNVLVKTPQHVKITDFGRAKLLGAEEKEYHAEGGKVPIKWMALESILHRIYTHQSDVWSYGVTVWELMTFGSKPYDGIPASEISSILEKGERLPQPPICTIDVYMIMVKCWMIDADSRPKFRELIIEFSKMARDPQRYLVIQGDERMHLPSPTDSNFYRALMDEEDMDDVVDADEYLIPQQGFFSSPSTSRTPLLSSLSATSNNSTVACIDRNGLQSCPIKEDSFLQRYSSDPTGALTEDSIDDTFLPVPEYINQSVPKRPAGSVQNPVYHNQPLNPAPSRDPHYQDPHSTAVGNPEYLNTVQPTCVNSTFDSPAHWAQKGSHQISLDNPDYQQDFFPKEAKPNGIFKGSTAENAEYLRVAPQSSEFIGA
# Assay: EGFR kinase Enzymatic Activity Test 1
structure (smiles),measurement,value
"COc1cc(N2CCC(N3CCN(C)CC3)CC2)c(C)cc1Nc1ncc(Br)c(Nc2ccc(C)cc2P(C)(C)=O)n1 [US20230322822, Compound 2]",IC50,21.3 nM

# From BindingDB's records for patent US20230322822 (Chengdu Di''Ao Jiuhong Pharmaceutical Factory, 2023)
